Literature values as cited in article PMC7027746 (Clinical Pharmacology in Drug Development, 2019).

Test system: crizotinib‐naive patients with ALK‐positive NSCLC
Conditions: phase 3 trial; cited from earlier work

C[C@@H](Oc1cc(-c2cnn(C3CCNCC3)c2)cnc1N)c1c(Cl)ccc(F)c1Cl [crizotinib]
12‐month progression‐free survival: 43%
